Assay results reported in US11858951B2, “Boronic acid derivatives” (Merck Patent GmbH, priority 2017, dated 2024).

What was measured:
[1] = target: LMP7 (purified human immuno proteasome) (Homo sapiens, UniProt P28062); assay: Determination of LMP7 activity (fluorescence intensity assay, Suc-LLVY-AMC); type: biochemical; settings: for Selectivity LMP7 vs Beta5: LMP7 versus Beta5, incubation for 20 minutes; for IC50: read-out: LMP7 IC50, incubation for 20 minutes at 25° C., concentrations 30 μM to 15 pM
[2] = target: Beta5 (purified human constitutive proteasome) (Homo sapiens, UniProt P28074); assay: Determination of Beta5 activity (fluorescence intensity assay, Suc-LLVY-AMC); type: biochemical; settings: read-out: Beta5 IC50; incubation for 20 minutes at 25° C.; concentrations 30 μM to 15 pM

Row | Structure (SMILES) | Selectivity LMP7 vs Beta5 [1] | IC50 [1] [nM] | IC50 [2] [nM]
1 | O=C(N[C@@H](Cc1coc2ccccc12)B(O)O)[C@@]12CC[C@@H](O1)c1ccccc12 | +++ (300 ≤ Selectivity < 500) | < 50 | 5000 to 30000
2 | O=C(N[C@@H](Cc1coc2ccccc12)B(O)O)[C@]12CC[C@H](O1)c1ccccc12 | +++++ (Selectivity ≥700) | < 50 | 500 to 5000
